Measured values taken from ChEMBL document CHEMBL3585305, “Structure-Based Design and Optimization of Multitarget-Directed 2H-Chromen-2-one Derivatives as Potent Inhibitors of Monoamine Oxidase B and Cholinesterases” (J Med Chem, 2015).

Amino acid sequences for entries named in this document (tags omitted).
UniProt P21397, whole entry: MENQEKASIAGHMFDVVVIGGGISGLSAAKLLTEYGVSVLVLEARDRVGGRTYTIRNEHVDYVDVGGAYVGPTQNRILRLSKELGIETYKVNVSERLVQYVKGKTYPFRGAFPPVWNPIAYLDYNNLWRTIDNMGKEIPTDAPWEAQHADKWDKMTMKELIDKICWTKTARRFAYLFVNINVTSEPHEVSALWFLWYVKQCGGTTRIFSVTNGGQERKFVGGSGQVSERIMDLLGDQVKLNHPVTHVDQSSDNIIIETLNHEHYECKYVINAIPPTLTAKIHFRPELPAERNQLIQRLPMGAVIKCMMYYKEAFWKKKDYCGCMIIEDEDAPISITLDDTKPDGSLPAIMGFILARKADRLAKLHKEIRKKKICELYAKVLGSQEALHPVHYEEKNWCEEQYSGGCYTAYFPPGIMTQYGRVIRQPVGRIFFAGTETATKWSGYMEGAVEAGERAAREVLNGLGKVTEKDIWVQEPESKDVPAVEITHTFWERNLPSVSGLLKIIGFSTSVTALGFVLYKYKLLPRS

Target: Amine oxidase [flavin-containing] A (Homo sapiens, UniProt P21397)
Assay: Inhibition of human recombinant MAO-A using kynuramine substrate by spectrophotometric assay

For `C#CCN(C)Cc1ccccc1` [PARGYLINE], the IC50 was 4.1 µM.
